Results as given in patent US20090226393A1, “POLYMER PACLITAXEL CONJUGATES AND METHODS FOR TREATING CANCER” (NITTO DENKO CORPORATION, priority 2008, published 2009).
Read-outs that look alike come from different tables or passages of the source.

Assays:
[1] = Plasma pharmacokinetics after single IV bolus in mice bearing NCI-H460 xenografts
[2] = Biodistribution in different organs (drug accumulation study); conditions: 48 hours post administration
[3] = not given; remark: listed apart in the source
[4] = not given; remark: listed apart in the source
[5] = 40 mg PTX equivalents/kg IV bolus
[6] = total PTX, 40 mg/kg PTX IV bolus
[7] = tumor, total PTX, 40 mg/kg PTX IV bolus

poly-(gamma-L-glutamyl glutamine)-paclitaxel [PGGA70K-PTX35]
estimated total urinary excretion (48 hour period): 13.9%
detected in the feces (within the first 48 hour): 36%
PGGA-[^3H]PTX/[^3H]PTX Ratio of AUClast [1]: 24
PGGA-[^3H]PTX/[^3H]PTX Ratio of CL [1]: 0.04
PGGA-[^3H]PTX/[^3H]PTX Ratio of Cmax [1]: 8.5
PGGA-[^3H]PTX/[^3H]PTX Ratio of T1/2 Terminal [1]: 5
PGGA-[^3H]PTX/[^3H]PTX Ratio of Vd [1]: 0.2
mean terminal half-life [1]: 296 h
AUClast [1, 5]: 3,454 μg-h/ml
Cmax [1, 5]: 517 µg/mL
increase of AUClast versus PTX ([1]; at equivalent PTX doses): 23.6 fold
increase of Cmax versus PTX ([1]; at equivalent PTX doses): 8.5 fold
AUClast [1, 6]: 3454375 ng·h/mL
CL [1, 6]: 0.192 mL/min/kg
Cmax [1, 6]: 517.084 µg/mL
T1/2 Terminal [1, 6]: 296 h
amount retained in kidney [2]: ~60 µg/g
amount retained in liver [2]: about 230 μg/g
amount retained in lung [2]: ~40 µg/g
amount retained in spleen [2]: ~160 µg/g
PGGA-[^3H]PTX/[^3H]PTX Ratio of AUClast ([3]; tumor): 8
PGGA-[^3H]PTX/[^3H]PTX Ratio of CL ([3]; tumor): 0.12
PGGA-[^3H]PTX/[^3H]PTX Ratio of Cmax ([3]; tumor): 2
PGGA-[^3H]PTX/[^3H]PTX Ratio of T1/2 Terminal ([3]; tumor): 2
PGGA-[^3H]PTX/[^3H]PTX Ratio of Tmax ([3]; tumor): 2
AUClast ([3]; tumor tissue): 2,496 μg-h/ml
Cmax ([3]; tumor tissue): 17 µg/mL
terminal half-life ([3]; tumor tissue): 107 h
increase of AUClast in the tumor versus PTX (amount of PTX delivered to the tumor) ([3]; tumor, at equivalent PTX doses): 7.7 fold
increase of Cmax in the tumor versus PTX ([3]; tumor, at equivalent PTX doses): 2.1 fold
AUClast [3, 7]: 2496055 ng·h/mL
CL [3, 7]: 0.2442 mL/min/kg
Cmax [3, 7]: 17.538 µg/mL
T1/2 Terminal [3, 7]: 107 h
Tmax [3, 7]: 4 h
solubility in saline [4]: 50 mg/mL
